Data as given in patent EP0255343A2, “L-aspartylfenchylamino alcohol derivatives” (priority 1986, dated 1988).

Settings: colorless and odorless powder

solubility in water | Substance
readily soluble in water | 3-N-(L-aspartyl)amino-1-fenchyl-2-butanol [Compound A]
readily soluble in water | 3-N-(L-aspartyl)amino-4-fenchyl-2-butanol [Compound B]
